Only a part is listed here, and it is no random draw. Some tests of the compounds listed are not included; inactive here does not mean inactive elsewhere. Activity calls are given as the source filed them. Rule for the calls: active = inhibition of at least 40% at 20 µM; inactive = the rest.
target: Apoptotic protease-activating factor 1 (Homo sapiens) (UniProt O14727); test: blockers of Apaf-1-driven caspase-3 activation – biochemical, DEVD-Rh110 fluorescence, uHTS, primary screen (AID 489030); details: reconstituted apoptosome caspase-3 activity, at 20 µM, stronger effect = higher value;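 note: plate controls were DMSO wells for no effect and DEVD-CHO caspase inhibitor wells for full effect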
Method in brief: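 Assay system: Apoptosome proteins | Medium: pH 7.5 Hepes buffer with CHAPS, BSA, DTT | Also added: Cytochrome c and DEVD-Rh110 substrate | Times: 30 min plus 50 min, RT | Detection: Rhodamine 110 fluorescence at Ex 480/Em 540 nm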

The chains behind the UniProt entries cited, without tags or fusion partners.
UniProt O14727, whole entry: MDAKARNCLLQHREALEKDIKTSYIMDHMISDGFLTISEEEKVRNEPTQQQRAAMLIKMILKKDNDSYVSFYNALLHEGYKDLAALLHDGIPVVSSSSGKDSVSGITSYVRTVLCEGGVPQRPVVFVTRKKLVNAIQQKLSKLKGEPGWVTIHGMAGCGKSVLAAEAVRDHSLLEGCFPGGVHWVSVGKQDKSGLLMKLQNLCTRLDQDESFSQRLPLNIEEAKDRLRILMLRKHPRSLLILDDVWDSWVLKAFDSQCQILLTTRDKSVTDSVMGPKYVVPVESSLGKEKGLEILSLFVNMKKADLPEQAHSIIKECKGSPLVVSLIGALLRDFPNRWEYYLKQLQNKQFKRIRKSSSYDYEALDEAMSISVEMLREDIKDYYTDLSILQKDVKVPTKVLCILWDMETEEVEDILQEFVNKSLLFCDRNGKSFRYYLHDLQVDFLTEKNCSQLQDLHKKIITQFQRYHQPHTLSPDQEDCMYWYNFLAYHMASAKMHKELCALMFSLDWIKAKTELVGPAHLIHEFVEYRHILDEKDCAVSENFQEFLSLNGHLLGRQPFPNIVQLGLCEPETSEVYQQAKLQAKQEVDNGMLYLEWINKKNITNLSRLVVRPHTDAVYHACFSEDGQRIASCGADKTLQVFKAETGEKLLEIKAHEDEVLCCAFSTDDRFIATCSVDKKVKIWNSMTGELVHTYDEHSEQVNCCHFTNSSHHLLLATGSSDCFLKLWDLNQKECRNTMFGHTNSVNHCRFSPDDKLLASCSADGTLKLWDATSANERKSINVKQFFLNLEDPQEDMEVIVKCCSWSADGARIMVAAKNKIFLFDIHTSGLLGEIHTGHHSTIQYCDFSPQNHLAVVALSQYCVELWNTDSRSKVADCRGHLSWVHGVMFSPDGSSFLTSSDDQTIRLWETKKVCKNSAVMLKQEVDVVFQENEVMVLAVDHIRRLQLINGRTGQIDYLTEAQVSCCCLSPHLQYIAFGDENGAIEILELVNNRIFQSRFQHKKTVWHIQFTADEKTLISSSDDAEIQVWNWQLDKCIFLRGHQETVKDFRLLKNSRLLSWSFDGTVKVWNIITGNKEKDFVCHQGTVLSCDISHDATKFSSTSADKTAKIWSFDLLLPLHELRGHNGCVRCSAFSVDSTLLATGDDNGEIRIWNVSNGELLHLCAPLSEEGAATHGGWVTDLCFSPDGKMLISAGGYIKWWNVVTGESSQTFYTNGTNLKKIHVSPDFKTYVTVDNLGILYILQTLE

| Structure (SMILES) | inhibition |
| --- | --- |
| CN(C)C1CCCC1OC(=O)C(O)(c1ccccc1)c1ccccc1 (centres undefined) | inactive: -1.57% |
| CN(C)c1ccc(C(=O)NCC2(N(C)C)CCCCC2)cc1 | inactive: 1.89% |
| Cc1ccccc1C(=O)NCC1(N2CCCCC2)CCCCC1 | inactive: 5.1% |
| O=C(NCC1(N2CCCCC2)CCCCC1)c1cc(F)c(F)cc1Cl | inactive: 0.996% |
| C=CCN1CCN(CCOC(=O)C(O)(c2ccccc2)c2ccccc2)CC1 | inactive: 0.163% |
| COc1ccc(C(=O)NCC2(N(C)C)CCCCC2)cc1 | inactive: 0.503% |
| O=C(NCC1(N2CCCCC2)CCCCC1)c1cccc(Br)c1 | inactive: -8.04% |
| Cc1cc(C(=O)NCC2(N3CCCCC3)CCCCC2)ccc1[N+](=O)[O-] | inactive: 8.62% |
| CCN1CCCC(OC(=O)C2(O)c3ccccc3C=Cc3ccccc32)C1 (centres undefined) | inactive: 3.64% |
| O=C(NCC1(N2CCCCC2)CCCCC1)c1cc([N+](=O)[O-])ccc1Cl | inactive: -3.52% |
| CN1[C@@H]2CC[C@H]1CC(OC(=O)C(O)(c1ccccc1)c1ccccc1)C2 (some centres undefined) | inactive: 6.05% |
| COc1cc(SC)ccc1C(=O)NCC1(N(C)C)CCCCC1 | inactive: 0.788% |
| CCN(CC)CC(C)C(C)OC(=O)C(O)(c1ccccc1)c1ccccc1 (centres undefined) | inactive: -22.2% |
| CC(C)N1C(=O)CC2(CCN(CCOC(=O)C(O)(c3ccccc3)c3ccccc3)CC2)C1=O | inactive: -8.66% |
| Cc1ccc(C(=O)NCC2(N3CCCCC3)CCCCC2)cc1 | inactive: -2.43% |
| O=C(OC1CN2CCC1CC2)C(CO)(c1ccccc1)c1ccccc1 (centres undefined) | inactive: 0.196% |
| COc1ccc(Br)c(C(=O)NCC2(N3CCCCC3)CCCCC2)c1 | inactive: -8.2% |
| CC(C)Oc1ccc(C(=O)NCC2(N(C)C)CCCCC2)cc1 | inactive: 10.9% |
| CN(C)c1cccc(C(=O)NCC2(N(C)C)CCCCC2)c1 | inactive: 2.15% |
| CN(C)C1(CNC(=O)c2ccc(Br)cc2)CCCCC1 | inactive: 20.1% |
| COc1cc(C(=O)NCC2(N(C)C)CCCCC2)c([N+](=O)[O-])cc1OC | inactive: 15% |
| COc1ccc(Cl)cc1C(=O)NCC1(N(C)C)CCCCC1 | inactive: 0.513% |
| COc1cccc(C(=O)NCC2(N3CCCCC3)CCCCC2)c1 | inactive: -15.9% |
| O=C(NCC1(N2CCCCC2)CCCCC1)c1cccc(Cl)c1 | inactive: -3.96% |
